Assay: Selectivity index, ratio of IC50 for antimalarial activity against Plasmodium falciparum Dd2 to IC50 of antimalarial activity against Plasmodium falciparum 3D7
Type: functional

## C[C@H]1[C@H](OC(=O)CCC(=O)O)O[C@@H]2O[C@@]3(C)CC[C@H]4[C@H](C)CC[C@@H]1[C@@]24OO3
  Ratio IC50: 1.4
